{"source": "ChEMBL document CHEMBL3853313", "about": "“Iminoguanidines as Allosteric Inhibitors of the Iron-Regulated Heme Oxygenase (HemO) of Pseudomonas aeruginosa” (J Med Chem, 2016)", "target": "T1, Heme oxygenase (Pseudomonas aeruginosa) (UniProt O69002)", "T1 sequence (whole entry)": "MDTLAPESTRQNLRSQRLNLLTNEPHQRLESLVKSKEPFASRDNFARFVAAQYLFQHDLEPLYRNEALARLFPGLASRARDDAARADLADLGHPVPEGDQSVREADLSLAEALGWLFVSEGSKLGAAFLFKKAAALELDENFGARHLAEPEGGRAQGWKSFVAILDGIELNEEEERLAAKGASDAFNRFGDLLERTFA", "experiment": "Binding affinity to Pseudomonas aeruginosa holo-HemO (53 to 62 residues) at 30 mins by HXMS method", "note": "Calls of active or inactive are those of the source. No cut-off for these calls is given here."}
{"smiles": "CN(C)c1ccc(/C=N/NC(=N)N)cc1.Cl", "values": [{"measurement": "Activity", "value": "Active"}]}
